Assay results: US10689377B2

Columns and labels:
KRas G12C [1] = target: KRas G12C (Homo sapiens, UniProt P01116, C118S/C51S/C80L/G12C); assay: KRas G12C Modification Assay (LCMS detection of covalent adduct); type: binding; settings: normalized percent of control; 5 μM concentration for 3 hours
KRas G12C [2] = target: KRas G12C (Homo sapiens, UniProt P01116, G12C); assay: Cellular inhibition of KRas G12C measured by Phospho-ERK in NCI-H358 cells; type: cell-based; settings: pERK(Thr202/Tyr204) normalized with GAPDH, 3 hours

Row | SMILES | POC (KRas G12C [1]) | IC50 (KRas G12C [2]) [nM]
1 | C=CC(=O)N1CCN(c2ncnc3c2CCN(c2cccc4ccc(O)cc24)C3)CC1 | A (“A”≤25% POC) | > 1000
2 | CN1CC(F)(F)C[C@H]1COc1nc2c(c(N3CCN(C(=O)/C=C/CN4CC(F)C4)[C@@H](CC#N)C3)n1)CCN(c1cccc3cccc(Cl)c13)C2 | – | > 1000
